Values quoted from earlier work in patent US4749790A, “Process for preparing H2 receptor antagonist ascorbate compounds” (priority 1985, dated 1988).

What was measured:
rats = conditions: cited from earlier work
male and female rats = conditions: 0.5 mM solution, two years; cited from earlier work

Compound	LD50 (rats) [mg/kg]	rats that developed adenomas and adenocarcinomas (glandular stomach) (male and female rats) [%]
CN(N=O)C(=N)N[N+](=O)[O-]	80 to 100	≥ 45
nitrosocimetidine	1800 to 1900	–
